Experimental data taken from patent US9289381B2, “Stabilization and storage of biological pharmaceutical compositions” (The University of North Carolina at Charlotte, priority 2009, dated 2016).

Experiments:
[1] = test system: J774 murine macrophage cell line; test: Resazurin metabolism (cell viability) assay; format: cell-based, mouse
[2] = Osmolality by vapor pressure osmometer, osmotic coefficient; format: physicochemical

Choline O,O′-diethyl dithiophosphate
Log EC50, μM (Dose Response Model) ([1]; J774, 48 h, value is the logarithm of EC50, error of last digit in parentheses, equation 1): 3.91 (2) μM
EC50 ([1]; J774, 48 h exposure): 8.2 mM
osmotic coefficient (φ) ([2]; 100 mM in water, 1 indicates 100% dissociation): 0.8
Osmotic Coef., φ in H2O ([2]; 100 mM solutions in deionized water): 0.76
